# Results published in patent publication US20260022143A1, “Cyclic Peptide Inhibitors of IL-23” (JANSSEN PHARMACEUTICA NV, priority 2022, published 2026).
# pIC50: −log10 of the molar value. Like-named read-outs stand apart in the source and are kept apart here.
# Experiments:
# [1] = molecular target: T1, IL-23R (Homo sapiens, UniProt Q5VWK5); experiment: IL23R Reporter Assay; format: cell-based; settings: HEK293 cells containing IL-23R, IL-12RP1 and STAT-inducible firefly luciferase reporter, 10 ng/mL IL-23 (EC90), 5 h at 37° C.
# T1 construct: host or cells: HEK293
# T1 sequence (Q5VWK5 24-629): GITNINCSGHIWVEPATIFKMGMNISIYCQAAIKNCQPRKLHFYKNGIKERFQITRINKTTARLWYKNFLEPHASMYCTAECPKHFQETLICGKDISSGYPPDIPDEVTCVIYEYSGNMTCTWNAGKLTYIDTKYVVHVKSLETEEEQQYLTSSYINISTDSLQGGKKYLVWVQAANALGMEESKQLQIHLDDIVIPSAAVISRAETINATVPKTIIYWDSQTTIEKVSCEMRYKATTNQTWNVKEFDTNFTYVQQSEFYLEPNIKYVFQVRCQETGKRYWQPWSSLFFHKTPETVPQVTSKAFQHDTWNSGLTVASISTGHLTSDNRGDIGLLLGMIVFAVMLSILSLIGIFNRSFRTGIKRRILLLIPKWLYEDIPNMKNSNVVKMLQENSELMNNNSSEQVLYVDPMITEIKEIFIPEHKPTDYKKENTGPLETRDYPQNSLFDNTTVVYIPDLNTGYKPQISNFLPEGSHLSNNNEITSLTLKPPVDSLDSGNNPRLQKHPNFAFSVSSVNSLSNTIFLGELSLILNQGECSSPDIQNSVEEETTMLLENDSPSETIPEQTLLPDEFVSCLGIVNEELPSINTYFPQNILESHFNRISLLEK
# [2] = Exposed Polar Surface Area (EPSA); format: physicochemical; settings: SFC on Chirex 3014 column; sample 1 mM DMSO stock
# From the text: Exposed Polar Surface Area (EPSA) is an experimental descriptor of molecular polarity obtained from chromatographic retention in supercritical fluid chromatography (SFC).
# The stationary phase (Chirex 3014(S)-valine and (R)-1-(alpha-naphthyl) ethylamine) was selected for its balance of lipophilic and polar attributes and its capacity to separate compounds with wide polarity differences. The mobile phase consists of methanol (+Ammonium formate) and CO2. Polar compounds are retained stronger under these conditions and a low-slope gradient of methanol achieves elution based on increasing polarity of the mobile phase. Results are normalized using calibration standards generating a linear relationship between retention times and EPSA values. The unit of EPSA is Å^2.
# Along with the measurement of compounds of interest, a series of 8 calibration standards (see Materials) are analyzed generating a linear relationship between retention times and EPSA value. The 8 compounds used as calibration standard have their own EPSA value defined by G. Goetz based on the comparison with TPSA (see G. Goetz, L. Philippe and M. Shapiro, “EPSA: A novel supercritical fluid chromatography technique enabling the design of permeable cyclic peptides,” ACS Med. Chem. Lett., vol. 5, pp. 1167-1172, 2014 for more information). The slope from the linear relationship between EPSA values of these eight compounds and their retention times is used to determine the EPSA value of each compound of interest that's measured under the same condition using the equation as below: […]
# The mixture of calibrations standard is reinjected every 20 compounds to validate the stability of the retention time.
# The mobile phase modifier consists of ammonium formate LC_MS grade (>99%) (CAS number 540-69-2) diluted to 20 mM in HPLC grade Methanol (MeOH, CAS number 67-56-1) and liquid C02 SFC grade (CAS number 124-38-9).
# Antipyrine (CAS number: 60-80-0) Chlorpromazine hydrochloride (CAS number: 69-09-0), desipramine hydrochloride (CAS number: […]), pindolol (CAS Number: 13523-86-9), diclofenac (CAS number: 15307-79-6)), m-nitro benzoic acid (CAS number: 121-92-6), bumetanide (CAS number: 28395-03-1), furosemide (CAS number: 54-31-9) were purchased from Sigma Aldrich (Steihneim, Germany).
# All analyses were performed on a ultra performance convergence chromatography (UPC™) apparatus (Waters, Milford, MA, USA) equipped with a sample manager, a binary solvent delivery pump (BSM), a column manager, a convergence manager (automated back pressure regulator), a photo diode array detector (DAD) with a high pressure flow cell, and a mass detector simple quadrupole QDa. After the UV detector, the effluent of the SFC was mixed with an eluent consist of mixture MeOH/water (+0.3% Ammonia) 95/5 delivered by a make up pump with a flow rate of 0.4 mL/min and then split to the QDa using a splitter. The instrument was controlled, and data were processed with Masslynx 4.1.
# The Analyses were performed using a 4.6×50 mm Chirex 3014(S)-valine and (R)-1-(alpha- naphthyl) ethylamine column (Phenomenex, Le Pecq, France) with 5 um particle and 100A pore size. The flow rate was 4 mL/min with the outlet pressure set to 14 MPa. The injection volume was 2 μL. the mobile phase composition was varied from 5% to 60% modifier at 20%/ min in a linear gradient, holding at 60% for 1.45 min and reverting to the original 5% until the end of the run. Data are acquired during 5 min. An equilibration time of 1 min is applied between 2 injections resulting in an injection every 6 min. each sample is analyzed in duplicate, resulting in a sample to sample turnaround time of 12 min.
# The column temperature was set to 35° C. The mass detector was used in full scan from 100 to 800 for small molecules and from 500 to 1200 for peptides.
# Each sample is delivered by compound logistics from DMSO stock solution without dilution. The concentration is 1 mM and the volume is 60 μL.
# [3] = read-out: IL23R Reporter Assay (micromolar)
pIC50 ([1]; read-out: IL23R Reporter Assay),Compound,EPSA [2] [Å^2],"pIC50 [1, 3]"
8.89,"CC(=O)NCCCC[C@@H]1NC(=O)[C@H](Cc2c[nH]c3ccccc23)NC(=O)[C@H]([C@@H](C)O)NC(=O)[C@H](CC(N)=O)NC(=O)[C@@H](NC(=O)[C@@H](CCCC[N+](C)(C)C)NC(C)=O)CCSC[C@@](C)(C(=O)N[C@@H](Cc2ccc(OCCN)cc2)C(=O)N[C@@H](Cc2ccc3ccccc3c2)C(=O)NC2(C(=O)N[C@@H](CCCCNC(C)=O)C(=O)N[C@@H](CC(N)=O)C(=O)N[C@@H](Cc3cccnc3)C(=O)N(C)CC(N)=O)CCOCC2)NC1=O [compound 569, MeCO-k(Me)3-Abu(1)-N-T-W-K(Ac)-aMeC(1)-AEF-2Nal-THP-K(Ac)-N-3Pya-Sar-CONH2]",,
,C12gEPEG2PEG2CO-Pen(3)-N(N(Me)2)-T-7MeW-K(Ac)-Pen(3)-TMAPF-2Nal-THP-K(NMeac)-N-3Pya-NMeK(PEG2PEG2gEC12)-CONH2 [compound 354],194.35,6.48
,C12gEPEG2PEG2CO-hk(Me)3-Pen(3)-N(N(Me)2)-T-7MeW-K(NMeAc)-Pen(3)-TMAPF-2Nal-K(PEG2PEG2gEC12)-N-3Pya-Sar-CON(Me)2 [compound 377],148.25,7.01
,C12gEPEG2PEG2CO-hk(Me)3-Pen(3)-N(N(Me)2)-T-7MeW-K(NMeAc)-Pen(3)-TMAPF-2Nal-THP-K(NMeAc)-N-3Pya-Sar-CON(Me)2 [compound 322],,8.32
,C12gEPEG2PEG2CO-hk(Me)3-Pen(3)-N(N(Me)2)-T-7MeW-K(NMeAc)-Pen(3)-TMAPF-2Nal-THP-K(PEG2PEG2gEC12)-N-3Pya-Sar-CON(Me)2 [compound 375],171.72,6.62
,C12gEPEG2PEG2CO-hk(Me)3-Pen(3)-N(N(Me)2)-T-7MeW-K(PEG2PEG2gEC12)-Pen(3)-TMAPF-2Nal-THP-K(NMeAc)-N-3Pya-Sar-CON(Me)2 [compound 323],,7.03
,C12gEPEG2PEG2CO-k(PEG2PEG2gEC12)-Pen(3)-N(N(Me)2)-t-7MeW-Dab(NMeAc)-Pen(3)-TMAPF-2Nal-THP-K(NMeAc)-N-3Pya-Sar-CON(Me)2 [compound 385],,7.00
,MeCO-Pen(3)-N(N(Me)2)-t-7MeW-Dab(NMeAc)-Pen(3)-AEF-2Nal-THP-AIB-N-3Pya-Sar-CON(Me)2 [compound 157],149.27,8.55
,MeCO-Pen(3)-N(N(Me)2)-t-7MeW-Dab(NMeAc)-Pen(3)-AEF-2Nal-THP-Dab(NMeAc)-N-3Pya-Sar-CON(Me)2 [compound 170],145.98,8.40
,cPEG3aCO-Pen(3)-N(N(Me)2)-T-7MeW-K(Ac)-Pen(3)-TMAPF-2Nal-THP-K(NMeac)-N-3Pya-NMeK(PEG2PEG2C14)-CONH2 [compound 359],146.57,7.85
,cPEG3aCO-Pen(3)-N(N(Me)2)-T-7MeW-K(Ac)-Pen(3)-TMAPF-2Nal-THP-K(NMeac)-N-3Pya-NMeK(SP6PEG2PEG2gEC12)-CONH2 [compound 408],165.31,8.33
,cPEG3aCO-Pen(3)-N(N(Me)2)-T-7MeW-K(NMeAC)-Pen(3)-TMAPF-2Nal-THP-K(NMeaC)-N-3Pya-NMeK(PEG2PEG2C12)-CONH2 [compound 307],,7.77
,cPEG3aCO-Pen(3)-N(N(Me)2)-T-7MeW-K(NMeAc)-Pen(3)-TMAPF-2nal-Achx-K(NMeAc)-N-3Pya-Sar-CON(Me)2 [compound 339],154.59,8.72
,cPEG3aCO-Pen(3)-N(N(Me)2)-T-7MeW-K(NMeAc)-Pen(3)-Y(OtzlC1aC8)-2Nal-THP-K(NMeAc)-N-3Pya-Sar-CON(Me)2 [compound 290],137.35,6.92
,cPEG3aCO-Pen(3)-N(N(Me)2)-T-7MeW-K(NMeAc)-Pen(3)-mPEG3TMA4F-2Nal-THP-K(NMeAc)-N-3Pya-Sar-CON(Me)2 [compound 272],146.28,8.66
,cPEG3aCO-Pen(3)-N(N(Me)2)-t-7MeW-Dab(NMeAc)-Pen(3)-AEF-2Nal-THP-Dab(NMeAc)-N-3Pya-Sar-CON(Me)2 [compound 160],151.21,8.62
,cPEG3aCO-Pen(3)-N(N(Me)2)-t-7MeW-Dab(NMeAc)-Pen(3)-AEF-2Nal-THP-Dab(NMeAc)-N-3Pya-Sar-CONH(PEG3a) [compound 191],143.97,8.60
,cPEG3aCO-Pen(3)-N(N(Me)2)-t-7MeW-Dab(NMeAc)-Pen(3)-AEF-2Nal-THP-E-N-3Pya-Sar-CON(Me)2 [compound 176],168.08,8.41
,cPEG3aCO-Pen(3)-N(N(Me)2)-t-7MeW-Dab(NMeAc)-Pen(3)-AEF-2Nal-THP-K(NMeAc)-N-3Pya-Sar-CONH2 [compound 171],152.42,8.54
,cPEG3aCO-Pen(3)-N(N(Me)2)-t-7MeW-Dab(NMeAc)-Pen(3)-TMAPF-2Nal-THP-K(NMeAc)-N-3Pya-Sar-CON(Me)2 [compound 358],141.77,8.28
,cPEG3aCO-Pen(3)-N(N(Me)2)-t-7MeW-Dab(NMeAc)-Pen(3)-TMAPF-2Nal-THP-K(NMeAc)-N-3Pya-Sar-CONH2 [compound 362],156.88,8.66
,cPEG3aCO-Pen(3)-N(N(Me)2)-t-7MeW-Dap(NMeAc)-Pen(3)-TMAPF-2Nal-THP-K(NMeAc)-N-3Pya-Sar-CON(Me)2 [compound 414],156.56,8.57
,cPEG3aCO-Pen(3)-N-t-7MeW-Dab(NMeAc)-Pen(3)-TMAPF-2Nal-THP-K(NMeAC)-N-3Pya-Sar-CON(Me)2 [compound 311],156.23,8.89
,cPEG3aCO-Pen(3)-n-T-7MeW-K(NMeAC)-Pen(3)-TMAPF-2Nal-THP-Dab(NMeAc)-N-3Pya-Sar-CON(Me)2 [compound 309],157.5,8.96
,cPEG3aCO-Pen(3)-n-T-7MeW-K(NMeAc)-Pen(3)-AEF-2Nal-THP-Dab(NMeAc)-N-3Pya-Sar-CONH2 [compound 174],158.02,8.44
,cPEG3aCO-Pen(3)-n-T-7MeW-K(NMeAc)-Pen(3)-AEF-2Nal-THP-K(Ac)-N-3Pya-Sar-CONH2 [compound 162],162.6,8.48
,cPEG3aCO-Pen(3)-n-T-7MeW-K(NMeAc)-Pen(3)-AEF-2Nal-THP-K(NMeAc)-N-3Pya-Sar-CONH2 [compound 167],157.24,8.77
